Reference: patent publication US20150353608A1

Target: Fc region prepared from human monoclonal IgG by papain digestion (human)
Experiment: SPR, Fc immobilized

- Kd: 220 nM
Binder: DAAWHLGELVWATYYDPETGTWEPDWQRMLGQ [polypeptide pep24]
